These results are taken from patent publication US12582645B2, “Chemokine CXCR4 receptor modulators and uses related thereto” (Emory University, priority 2017, dated 2026).

The chains behind the UniProt entries cited, without tags or fusion partners.
UniProt P61073, whole entry: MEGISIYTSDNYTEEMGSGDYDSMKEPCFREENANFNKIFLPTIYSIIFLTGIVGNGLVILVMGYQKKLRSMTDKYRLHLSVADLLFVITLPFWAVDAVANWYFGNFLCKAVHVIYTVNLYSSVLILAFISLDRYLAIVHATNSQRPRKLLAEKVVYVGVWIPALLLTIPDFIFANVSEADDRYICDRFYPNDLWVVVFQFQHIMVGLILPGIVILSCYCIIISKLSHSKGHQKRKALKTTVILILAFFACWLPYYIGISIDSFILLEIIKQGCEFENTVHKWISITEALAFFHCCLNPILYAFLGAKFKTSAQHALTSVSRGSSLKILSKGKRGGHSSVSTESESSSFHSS

The target in the assay is CXCR4 (Homo sapiens, UniProt P61073). The assay can be described thus: CXCR4-CEM calcium flux assay, antagonist mode (inhibition of SDF-1α-induced calcium flux). The class given is cell-based. The following applies: read-out: CXCR4 Ca^2+ Flux IC50, CCRF-CEM cells expressing endogenous CXCR4, stimulated with 4 nM SDF-1α. A general note: A change in cytosolic calcium serves as a functional read-out for many receptors and channels.

Consider `NC1CCC(N(C[C@H]2Cc3ccccc3CN2)[C@H]2CCCc3cccnc32)CC1` (single isomer, unassigned), for which the IC50 worked out at 1.83 µM.

In general, IC50 refers to the concentration that gives 50% inhibition.
